The whole screen tested about 410,000 compounds, of which about 850 (0.21%) were called active. The source calls these results inconclusive, neither active nor inactive. Calls follow the shape of the dose curve; as a rule, active = well fitted inhibition curve with a large enough effect; inconclusive = small, poorly fitted or top-dose-only effect, or another doubt; inactive = no such curve, though single readings can be large or run the other way.
molecular target: Glutaminase kidney isoform, mitochondrial (Homo sapiens) (UniProt O94925); assay: qHTS for Inhibitors of Glutaminase (GLS); conditions: GLS enzymatic activity, qHTS titration
Potency is read from the fitted curve at half-maximal effect.

Protein sequences, listed by entry. Tags and fused reporters are not part of them. Lines headed by an entry give the natural chain unless they say otherwise; changes in a name come on top.
UniProt O94925: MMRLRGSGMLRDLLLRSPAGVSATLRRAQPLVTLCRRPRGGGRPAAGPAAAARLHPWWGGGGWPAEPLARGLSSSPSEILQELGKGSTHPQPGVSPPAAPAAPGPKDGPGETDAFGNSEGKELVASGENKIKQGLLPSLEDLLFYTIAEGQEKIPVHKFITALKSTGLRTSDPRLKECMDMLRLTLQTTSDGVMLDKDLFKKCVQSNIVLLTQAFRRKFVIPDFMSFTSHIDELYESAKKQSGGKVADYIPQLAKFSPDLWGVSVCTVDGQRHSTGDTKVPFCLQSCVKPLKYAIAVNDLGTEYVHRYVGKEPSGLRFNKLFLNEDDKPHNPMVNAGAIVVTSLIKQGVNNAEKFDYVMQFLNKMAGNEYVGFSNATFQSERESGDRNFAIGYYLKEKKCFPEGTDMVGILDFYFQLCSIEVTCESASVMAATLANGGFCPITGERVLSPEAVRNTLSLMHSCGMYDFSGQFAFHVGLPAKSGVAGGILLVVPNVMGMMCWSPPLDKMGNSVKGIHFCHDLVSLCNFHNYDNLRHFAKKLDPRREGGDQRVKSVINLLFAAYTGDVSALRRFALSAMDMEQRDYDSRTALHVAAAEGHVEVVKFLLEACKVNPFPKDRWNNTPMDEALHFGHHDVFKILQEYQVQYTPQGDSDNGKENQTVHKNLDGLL

| Structure (SMILES) | Potency |
| --- | --- |
| CS(=O)(=O)c1cc([N+](=O)[O-])c2no[n+]([O-])c2c1 | inconclusive: 15.8 µM |
| Cc1ccc(S(=O)(=O)N(CCCN)CCCc2c(C)nc(N)[nH]c2=O)cc1 | inconclusive: 2.51 µM |
